Test system: 293 cells (transformed kidney epithelial cells)
Experiment: FACS (propidium iodide) analysis of apoptosis, 293 cells
Format: cell-based, human

SMILES: CN(C(=O)Cc1ccc(Cl)c(Cl)c1)[C@@H]1CCCC[C@H]1N1CCCC1 (relative stereo)
- induction of sub-G1 (apoptotic) cells (agent alone, 48 hours): marked induction
- induction of death (cells transfected with mutant super-repressor IκB): fails to induce death

Source: patent publication US7572762B1, “Materials and methods relating to the induction of apoptosis in target cells” (University of Dundee, priority 1998, dated 2009)
